# Assay results from ChEMBL document CHEMBL1135436, “Structure-activity relationships of the melanocortin tetrapeptide Ac-His-DPhe-Arg-Trp-NH(2) at the mouse melanocortin receptors. 1. Modifications at the His position” (J Med Chem, 2002).
# By UniProt entry, the sequences of proteins in these tests, tags left out. Where a name states a change or a piece, a line headed by the entry shows the natural chain unless it says otherwise.
# UniProt Q01727: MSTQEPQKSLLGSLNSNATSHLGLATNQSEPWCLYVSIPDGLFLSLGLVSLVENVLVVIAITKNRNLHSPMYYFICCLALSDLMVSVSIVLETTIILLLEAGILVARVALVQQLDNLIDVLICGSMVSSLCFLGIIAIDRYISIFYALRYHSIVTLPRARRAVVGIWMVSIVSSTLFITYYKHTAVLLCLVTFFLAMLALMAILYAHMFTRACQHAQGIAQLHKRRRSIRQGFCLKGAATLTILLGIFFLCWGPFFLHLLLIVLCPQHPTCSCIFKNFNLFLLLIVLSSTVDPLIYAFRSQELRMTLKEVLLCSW
# Molecular target: Melanocyte-stimulating hormone receptor (Mus musculus, UniProt Q01727)
# Assay: In vitro activation of mouse recombinant Melanocortin-1 receptor.
# In short: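 HEK-293 cells stably expressing the mouse receptor (calcium phosphate transfection, G418 1 mg/mL selection) were transfected with a CRE/β-galactosidase reporter. Lysates were read with ONPG at 37 °C (OD405), normalized to protein (OD595) and forskolin. EC50 came from nonlinear least-squares fitting, duplicate experiments in quadruplet.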
structure (smiles),measurement,value
CC(=O)N[C@H](Cc1cnc[nH]1)C(=O)N[C@H](Cc1ccccc1)C(=O)N[C@@H](CCCNC(=N)N)C(=O)N[C@@H](Cc1c[nH]c2ccccc12)C(N)=O,EC50,0.289 µM
